The chains behind the UniProt entries cited, without tags or fusion partners.
UniProt P08183, whole entry: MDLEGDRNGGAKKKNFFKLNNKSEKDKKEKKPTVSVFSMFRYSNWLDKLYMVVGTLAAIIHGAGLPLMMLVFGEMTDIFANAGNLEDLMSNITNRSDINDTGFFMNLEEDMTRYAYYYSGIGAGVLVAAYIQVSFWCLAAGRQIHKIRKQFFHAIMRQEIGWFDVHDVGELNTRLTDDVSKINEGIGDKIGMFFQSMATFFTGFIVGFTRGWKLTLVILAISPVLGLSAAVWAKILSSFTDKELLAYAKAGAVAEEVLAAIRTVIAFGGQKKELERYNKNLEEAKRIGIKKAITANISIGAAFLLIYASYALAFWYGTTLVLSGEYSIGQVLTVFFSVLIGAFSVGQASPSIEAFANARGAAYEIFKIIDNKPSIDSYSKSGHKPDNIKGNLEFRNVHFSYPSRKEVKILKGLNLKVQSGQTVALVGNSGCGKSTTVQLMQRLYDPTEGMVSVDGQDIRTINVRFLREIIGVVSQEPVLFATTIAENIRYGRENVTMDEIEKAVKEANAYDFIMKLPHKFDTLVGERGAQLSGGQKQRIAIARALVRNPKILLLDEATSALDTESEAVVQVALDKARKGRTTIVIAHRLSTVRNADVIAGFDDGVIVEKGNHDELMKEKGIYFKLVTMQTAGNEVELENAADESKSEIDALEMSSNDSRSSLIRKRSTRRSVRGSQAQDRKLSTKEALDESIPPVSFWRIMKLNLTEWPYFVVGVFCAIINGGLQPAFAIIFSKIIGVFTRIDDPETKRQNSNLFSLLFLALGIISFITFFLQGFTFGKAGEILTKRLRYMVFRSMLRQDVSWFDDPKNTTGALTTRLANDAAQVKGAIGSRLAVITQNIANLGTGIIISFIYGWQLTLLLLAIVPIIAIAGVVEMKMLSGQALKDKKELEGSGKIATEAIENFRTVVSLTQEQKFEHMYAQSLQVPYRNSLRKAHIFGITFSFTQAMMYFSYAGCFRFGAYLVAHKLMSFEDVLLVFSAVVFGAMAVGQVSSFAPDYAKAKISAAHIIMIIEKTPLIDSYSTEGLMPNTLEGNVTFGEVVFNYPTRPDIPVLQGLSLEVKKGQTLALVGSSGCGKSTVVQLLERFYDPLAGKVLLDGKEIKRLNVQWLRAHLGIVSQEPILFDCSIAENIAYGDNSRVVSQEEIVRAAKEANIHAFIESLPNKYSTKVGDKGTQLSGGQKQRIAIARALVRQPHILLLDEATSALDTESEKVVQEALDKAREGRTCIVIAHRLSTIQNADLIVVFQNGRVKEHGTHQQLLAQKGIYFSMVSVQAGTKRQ

In patent publication US10889805B2, “Intestinal epithelioid cells” (National Institutes of Biomedical Innovation, Health and …, priority 2015, dated 2021):

Target: P-gp (Homo sapiens, UniProt P08183)
Settings: 10 μM

ER value: 2.1
Substance: Rhodamine 123
